Measurements: PMC8624105 (Viruses, 2021)

Tests used:
Test in all cases: holdup assay
Format in all cases: binding, human
MPDZ PDZ1 0 = conditions: PDZ about 4 μM; two independent experiments
PARD6B PDZ1 = conditions: PDZ about 4 μM; two independent experiments
TJP1 PDZ2 = conditions: PDZ about 4 μM; two independent experiments
CARD14 PDZ1 = conditions: PDZ about 4 μM; two independent experiments
InaDl PDZ7 = conditions: PDZ about 4 μM; two independent experiments
TIAM1 PDZ1 = conditions: PDZ about 4 μM; two independent experiments
InaDl PDZ9 = conditions: PDZ about 4 μM; two independent experiments
SDCBP2 PDZ2 = conditions: PDZ about 4 μM; two independent experiments
NHERF4 PDZ1 = conditions: PDZ about 4 μM; two independent experiments
DLG3 PDZ3 = conditions: PDZ about 4 μM; two independent experiments
MAGI1 PDZ6 = conditions: PDZ about 4 μM; sd not given
SNTG1 PDZ1 = conditions: PDZ about 4 μM; two independent experiments

Biotin-(PEG3)-GFQNTDDVQTSF [ACE2 PBM peptide]
BI (binding intensity) (MPDZ PDZ1 0): -0.07
BI (binding intensity) (PARD6B PDZ1): -0.10
BI (binding intensity) (TJP1 PDZ2): 0.01
BI (binding intensity) (CARD14 PDZ1): 0.03
BI (binding intensity) (InaDl PDZ7): -0.01
BI (binding intensity) (TIAM1 PDZ1): -0.08
BI (binding intensity) (InaDl PDZ9): 0.01
BI (binding intensity) (SDCBP2 PDZ2): -0.01
BI (binding intensity) (NHERF4 PDZ1): 0.05
BI (binding intensity) (DLG3 PDZ3): -0.02
BI (binding intensity) (MAGI1 PDZ6): 0.04
BI (binding intensity) (SNTG1 PDZ1): -0.01
